From patent US7238711

B1: WVQ (peptide)
chain: WVQ
modifications: not checked
B2: KQK (peptide)
chain: KQK
modifications: not checked

How the values were obtained:
[1] = target: T1, Duffy Antigen Receptor for Chemokines (DARC) (human), Q16570; test: ratio of the constant for DARC to the inhibitory ED50
T1 chain: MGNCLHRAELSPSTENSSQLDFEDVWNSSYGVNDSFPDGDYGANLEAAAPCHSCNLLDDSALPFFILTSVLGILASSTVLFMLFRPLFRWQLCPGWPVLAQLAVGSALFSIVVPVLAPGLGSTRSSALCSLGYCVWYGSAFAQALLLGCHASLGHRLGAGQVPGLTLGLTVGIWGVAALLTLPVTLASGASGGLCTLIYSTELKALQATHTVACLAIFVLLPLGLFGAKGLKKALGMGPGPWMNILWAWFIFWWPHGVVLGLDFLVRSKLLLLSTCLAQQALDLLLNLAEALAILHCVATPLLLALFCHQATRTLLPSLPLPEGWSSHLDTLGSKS

[2] = target: T1, Duffy Antigen Receptor for Chemokines …; test: DARC binding (printed as affinity constant)
[3] = target: T1, Duffy Antigen Receptor for Chemokines …; test: estimated ka for red blood cells divided by average inhibitory ED50
[4] = target: T1, Duffy Antigen Receptor for Chemokines …; test: estimated ka for red blood cells divided by inhibitory ED50

Binder	DARC selectivity [1]	Kd [2] [µM]	Duffy selectivity [3]	Duffy selectivity [4]
B1	10	2	24.8	–
B2	–	15	–	22.3
